From patent US20050169994A1, “Carvedilol free base, salts, anhydrous forms or solvates thereof, corresponding pharmaceutical compositions, controlled release formulations, and treatment or delivery methods” (priority 2003, published 2005)

Assay: Solubility in water at 25° C. over time, with pH of filtered solution
Details: for solubility in water: room temperature

In the case of “Carvedilol Monocitrate Monohydrate [Carvedilol Mono-Citrate Salt]”, the “pH value when dissolved in water” value is reported as about 3, the “Aqueous Solubility” value (Table 11, 25° C., 1 hr) is reported as 1.63 mg of carvedilol free base/mL of solution and the “Aqueous Solubility” value (Table 11, 25° C., 4 hr) is reported as 1.47 mg of carvedilol free base/mL of solution. The “Aqueous Solubility” value (Table 11, 25° C., 24 hr) was 1.07 mg of carvedilol free base/mL of solution, the “Aqueous Solubility” value (Table 11, 25° C., 48 hr) was 1.02 mg of carvedilol free base/mL of solution and the “pH of filtered solution” value (Table 11, 1 hr) was 3.5. The “pH of filtered solution” value (Table 11, 4 hr) was 3.4, the “pH of filtered solution” value (Table 11, 24 hr) was 3.0 and the “Aqueous Solubility” value (Table 13, 25° C., 1 hr) was 1.64 mg of Carvedilol free base/mL of solution. The “Aqueous Solubility” value (Table 13, 25° C., 4 hr) was 1.74 mg of Carvedilol free base/mL of solution, the “Aqueous Solubility” value (Table 13, 25° C., 24 hr) was 1.46 mg of Carvedilol free base/mL of solution and the pH of solution (Table 13, 1 hr) was 3.3. The pH of solution (Table 13, 4 hr) was 3.2, the pH of solution (Table 13, 24 hr) was 3.2 and the “aqueous solubility compared with free base” value (in words) was “much better aqueous solubility than the free base”. For the same substance, the solubility in water (1 hour) was 1630 µg/mL and the solubility in water (48 hour) was 1020 µg/mL.
